Measured values published in patent publication US8841291B2, “Selective hydroxamic acid based MMP-12 and MMP-13 inhibitors” (Novartis AG, priority 2008, dated 2014).
pIC50: −log10 of the molar value.

Each compound was assayed against T1, Gelatinase (MMP-2) (Homo sapiens, UniProt P08253) (assay: Gelatinase (MMP-2) inhibitory activity, fluorogenic peptide substrate assay). Conditions: not given.
T1 sequence (P08253 110-660): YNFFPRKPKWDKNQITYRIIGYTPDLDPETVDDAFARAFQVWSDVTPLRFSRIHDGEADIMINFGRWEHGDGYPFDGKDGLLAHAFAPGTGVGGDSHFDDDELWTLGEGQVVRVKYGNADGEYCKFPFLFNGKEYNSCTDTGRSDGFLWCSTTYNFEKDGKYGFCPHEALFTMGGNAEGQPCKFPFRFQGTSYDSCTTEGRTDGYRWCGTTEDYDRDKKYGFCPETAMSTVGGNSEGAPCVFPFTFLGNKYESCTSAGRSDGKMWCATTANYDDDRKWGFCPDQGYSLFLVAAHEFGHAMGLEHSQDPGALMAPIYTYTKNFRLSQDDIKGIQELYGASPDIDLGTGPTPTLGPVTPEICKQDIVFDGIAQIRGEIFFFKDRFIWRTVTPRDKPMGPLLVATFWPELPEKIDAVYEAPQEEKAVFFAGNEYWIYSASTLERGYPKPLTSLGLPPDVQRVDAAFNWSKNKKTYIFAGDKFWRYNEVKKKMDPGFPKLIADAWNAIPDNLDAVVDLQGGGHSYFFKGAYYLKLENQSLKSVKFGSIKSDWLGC
Format: biochemical

SMILES | pIC50
CC(C)[C@H](C(=O)NO)N(Cc1cccnc1)S(=O)(=O)c1ccc2ccccc2c1 [Example 45, N-Hydroxy-3-methyl-2-[(naphthalene-2-sulfonyl)-pyridin-3-ylmethyl-amino]-butyramide] | 7.59

Same assay, conditions: substrate 5 μM, 60 min preincubation, 20-25° C.; read-out: MMP2 IC50

SMILES | pIC50
COc1ccc2cc(S(=O)(=O)N(CCC(C)C)[C@@H](C(=O)NO)C(C)C)ccc2c1 [Example 36, N-isoamyl-N-(6-methoxynaphthalene-2-sulfonyl)-D-valine hydroxamic acid] | 6.74
CC(C)CCN([C@@H](C(=O)NO)C(C)C)S(=O)(=O)c1ccc2cc(OCc3ccccc3)ccc2c1 [Example 53, 2-[(6-Benzyloxy-naphthalene-2-sulfonyl)-(3-methyl-butyl)-amino]-N-hydroxy-3-methyl-butyramide] | 5.79
CC(C)CCN([C@@H](C(=O)NO)C(C)C)S(=O)(=O)c1ccc2ncccc2c1 [Example 67, (R)—N-Hydroxy-3-methyl-2-[(3-methyl-butyl)-(quinoline-6-sulfonyl)-amino]-butyramide] | 6.51
CC(C)CCOc1ccc2cc(S(=O)(=O)N(CCC(C)C)[C@@H](C(=O)NO)C(C)C)ccc2c1 [Example 47, N-Hydroxy-3-methyl-2-[[6-(3-methyl-butoxy)-naphthalene-2-sulfonyl]-(3-methyl-butyl)-amino]-butyramide] | 6.03
CC(C)CCN([C@@H](C(=O)NO)C(C)C)S(=O)(=O)c1ccc2ccc(O)cc2c1 [Example 37, N-isoamyl-N-(6-hydroxynaphthalene-2-sulfonyl)-D-valine hydroxamic acid] | 5.48
CC(C)CCN([C@@H](C(=O)NO)C(C)C)S(=O)(=O)c1ccc2cc(O)ccc2c1 [Example 31, N-Hydroxy-2-[(6-hydroxy-naphthalene-2-sulfonyl)-(3-methyl-butyl)-amino]-3-methyl-butyramide] | 6.75
CC(C)CCN([C@H](CCc1ccccc1)C(=O)NO)S(=O)(=O)c1ccc2ccccc2c1 [Example 7, (R)—N-Hydroxy-2-[(3-methyl-butyl)-(naphthalene-2-sulfonyl)-amino]-4-phenyl-butyramide] | 6.34
CCOc1ccc2cc(S(=O)(=O)N(CCC(C)C)[C@@H](C(=O)NO)C(C)C)ccc2c1 [Example 42, 2-[(6-Ethoxy-naphthalene-2-sulfonyl)-(3-methyl-butyl)-amino]-N-hydroxy-3-methyl-butyramide] | 6.51
CCCOc1ccc2cc(S(=O)(=O)N(CCC(C)C)[C@@H](C(=O)NO)C(C)C)ccc2c1 [Example 87, N-Hydroxy-3-methyl-2-[(3-methyl-butyl)-(6-propoxy-naphthalene-2-sulfonyl)-amino]-butyramide] | 6.71
CC(C)[C@H](C(=O)NO)N(Cc1ccccn1)S(=O)(=O)c1ccc2ccccc2c1 [Example 54, (R)—N-Hydroxy-3-methyl-2-[(naphthalene-2-sulfonyl)-pyridin-2-ylmethyl-amino]-butyramide] | 6.63
CC(C)CCN([C@@H](C(=O)NO)C(C)C)S(=O)(=O)c1ccc2ccccc2c1 [Example 22, N-Hydroxy-3-methyl-2-[(3-methyl-butyl)-(naphthalene-2-sulfonyl)-amino]-butyramide] | 6.42
CC(C)[C@H](C(=O)NO)N(CCc1ccccc1)S(=O)(=O)c1ccc2ccccc2c1 [Example 13] | 6.70
COc1ccc2ccc(S(=O)(=O)N(CCC(C)C)[C@@H](C(=O)NO)C(C)C)cc2c1 [Example 40, (R)—N-Hydroxy-2-[(7-methoxy-naphthalene-2-sulfonyl)-(3-methyl-butyl)-amino]-3-methyl-butyramide] | 5.36
CC(C)[C@H](C(=O)NO)N(CCN(C)C)S(=O)(=O)c1ccc2ccccc2c1 [Example 56, N-(2-Dimethylamino-ethyl)-N-(6-methoxynaphthalene-2-sulfonyl)-D-valine hydroxamic acid] | 6.22
CC(C)[C@H](C(=O)NO)N(Cc1ccccc1)S(=O)(=O)c1ccc2ccccc2c1 [Example 10, 2-[Benzyl-(naphthalene-2-sulfonyl)-amino]-N-hydroxy-3-methyl-butyramide] | 6.15
CC(C)CCN([C@@H](C(=O)NO)C(C)(C)C)S(=O)(=O)c1ccc2ccccc2c1 [Example 69, (R)—N-Hydroxy-3,3-dimethyl-2-[(3-methyl-butyl)-(naphthalene-2-sulfonyl)-amino]-butyramide] | 5.44
